AlphaSeq binding of Ab-95 light chain variants to a spike HR2 peptide

The target is the same throughout: PDVDLGDISGINAS, from the HR2 region of SARS-CoV-2 spike.

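The parent was found by panning a naive human phage display library on the peptide. AAYL52 was designed without a model: most single CDR substitutions and a random sample of double and triple ones. The assay is AlphaSeq: two haploid yeast populations carry antibody and antigen on their surface. After mating in shaken culture at 30 °C for 16 h, diploids were selected and their barcode pairs sequenced. A regression on co-assayed BCL2-family reference pairs converts the normalised counts of each replicate to an apparent Kd. Each pool was mated in three replicate cultures.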

The variants keep the heavy chain, the linker and the frameworks of Ab-95 (scFv order VH, a (GGGGS)3 linker, VL).
VH: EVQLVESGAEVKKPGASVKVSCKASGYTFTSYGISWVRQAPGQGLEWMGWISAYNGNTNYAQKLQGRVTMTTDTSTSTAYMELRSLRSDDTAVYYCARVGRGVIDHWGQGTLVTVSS
VL: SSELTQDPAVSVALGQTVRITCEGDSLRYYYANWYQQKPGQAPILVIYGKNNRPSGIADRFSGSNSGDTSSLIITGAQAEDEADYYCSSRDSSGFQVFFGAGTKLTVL

Each variant is given by its three light chain CDRs, as the data file delimits them; those of the parent are EGDSLRYYYAN, GKNNRPS, SSRDSSGFQVF.
Numbers give log10(Kd / nM), so 0 is 1 nM and 3 is 1 µM. Smaller is tighter.
A mean of the replicates is given; it leaves out those without a signal.
A pair that was not seen in that replicate is written "ND"; this usually means weak binding, but a binder can also be missed.

| log10 Kd (nM) by replicate | mean, log10 nM | CDR-L1 | CDR-L2 | CDR-L3 |
|---|---|---|---|---|
| ND ND ND | ND | EGDSLRYYYAL | GKNRRPS | SSRDDSGFQVF |
| 3.86 4.36 3.19 | 3.81 | EGDSLSYYYTN | GKNCRPS | SSRDSSGFQVF |
| 2.91 4.22 4.40 | 3.84 | EGCSLRYPYAN | GKNNRPS | SSRDSSGFIVF |
| ND 4.70 ND | 4.70 | EGDKLRYYYAN | GKNNRPS | SSKDSSGFCVF |
| 3.69 3.88 ND | 3.78 | EGDSLRYRYAE | GKNNRPS | SIRDSSGFQVF |
| ND 5.54 ND | 5.54 | EGDSLRYYYAN | GMNNQPS | SSRDSSLFQVF |
| ND ND ND | ND | EGDSLRYYYAN | FKNDRPS | SSRDSSDFQVF |
| 3.15 2.47 2.88 | 2.83 | EGDSLRYYYAN | GKNFRPD | SSRDSSGFAVF |
| 3.23 ND ND | 3.23 | EGDSLRYYYAN | GYNNRPS | SSRDSSAFRVF |
| ND ND ND | ND | EEDSLRYYKAN | GKNNRPS | HSRDSSGFQVF |
| ND 4.42 ND | 4.42 | EGDSLRNYYAN | GKNNRPV | SSRDSSGFQYF |
| 3.48 ND ND | 3.48 | EGDSLIYYYAN | AKNNRPS | SSRDSSGFGVF |
| 5.81 4.16 ND | 4.98 | EGDSLRYWYAN | GKNNPPS | SSRDSSGFQVF |
| ND ND ND | ND | EGVSARYYYAN | GKNNRPS | LSRDSSGFQVF |
| 3.09 2.70 2.70 | 2.83 | EYDSLRYYEAN | GPNNRPS | SSRDSSGFQVF |
| 1.79 1.76 1.34 | 1.63 | EGDSLRYRYAN | GKNVRPS | SSRDTSGFQVF |
| ND 3.88 ND | 3.88 | EGDSARYYYAN | WKNNRPS | SSRDSGGFQVF |
| 4.49 3.17 2.71 | 3.45 | EGDSLYYYYAN | GKNNRPS | SSRDSSGFQVA |
| 2.08 2.22 2.19 | 2.16 | EGDSLSYYYAN | GKNMRPS | SSRDSSGFQVS |
| 3.26 ND 3.80 | 3.53 | EGWSLRVYYAN | GKNNRPS | SSRDSSGFAVF |
| 3.42 2.75 ND | 3.09 | EGDSLRYYYAN | GKNNRPS | SSHDSSGFQVA |
| ND ND 4.50 | 4.50 | NGDCLRYYYAN | GKNNDPS | SSRDSSGFQVF |
| 3.74 5.63 4.56 | 4.64 | EGDSLRAYYAN | YKNNRPS | SSRDSSNFQVF |
| 2.04 2.00 1.56 | 1.87 | EGDSLRYYYAN | GKNNRPS | SSVDASGFQFF |
| 2.66 2.33 ND | 2.49 | EGDSLRYYYAN | GKNNRMS | SSRDPSGFQVS |
| 3.07 3.39 ND | 3.23 | EGDSLVYYYAN | GKNNRPS | SSRDASGFQVF |
| ND ND ND | ND | EGDSLRRYYAN | GKNNLPS | SSRDSLGFQVF |
| 3.56 3.31 2.96 | 3.28 | EGDSLRYYYAN | GKNNAPS | SSRDSEGFQVS |
| 4.21 3.81 ND | 4.01 | EGDSLRYYYAN | AKNNRPI | SSRDSSGFQVW |
| 2.01 3.33 3.27 | 2.87 | EGDSLRYYYAN | GKNNRPS | EKRDSSGIQVF |
| 3.75 3.78 ND | 3.77 | EGDSLRYYYAN | EKNNRPS | HSRDSVGFQVF |
| 2.34 2.84 2.71 | 2.63 | EGDSLRYYTAN | GKNYRPS | SSRDSSGFQVF |
| 4.60 3.42 3.76 | 3.93 | EGDSLRYYYSN | GKNNRPS | SSRDSSGFIVF |
| 2.88 2.84 2.48 | 2.73 | YGDSLRMYYAN | GSNNRPS | SSRDSSGFQVF |
| 3.77 3.61 3.17 | 3.52 | EGDSLRYYYAN | GKNNRWS | ASRDSSAFQVF |
| ND ND ND | ND | EGFSLRYYYAN | GKVNRPK | SSRDSSGFQVF |
| ND 2.49 3.25 | 2.87 | ESDSLRYYYAN | GKNNRPS | SSCDSSGFQVA |
| 4.46 ND ND | 4.46 | EDLSLRYYYAI | GKNNRPS | SSRDSSGFQVF |
| 3.77 3.76 3.78 | 3.77 | EGDGCRYYYAN | GKNNRPS | SSRDSSGFSVF |
| 2.83 2.58 2.45 | 2.62 | EGTSNNYYYAN | GKNNRPS | SSRDSSGFQVF |

The first 5 variants above that were never detected:

{"CDR-L1": "EGDSLRYYYAL", "CDR-L2": "GKNRRPS", "CDR-L3": "SSRDDSGFQVF", "log10 Kd (nM) by replicate": "ND ND ND", "mean, log10 nM": "ND"}
{"CDR-L1": "EGDSLRYYYAN", "CDR-L2": "FKNDRPS", "CDR-L3": "SSRDSSDFQVF", "log10 Kd (nM) by replicate": "ND ND ND", "mean, log10 nM": "ND"}
{"CDR-L1": "EEDSLRYYKAN", "CDR-L2": "GKNNRPS", "CDR-L3": "HSRDSSGFQVF", "log10 Kd (nM) by replicate": "ND ND ND", "mean, log10 nM": "ND"}
{"CDR-L1": "EGVSARYYYAN", "CDR-L2": "GKNNRPS", "CDR-L3": "LSRDSSGFQVF", "log10 Kd (nM) by replicate": "ND ND ND", "mean, log10 nM": "ND"}
{"CDR-L1": "EGDSLRRYYAN", "CDR-L2": "GKNNLPS", "CDR-L3": "SSRDSLGFQVF", "log10 Kd (nM) by replicate": "ND ND ND", "mean, log10 nM": "ND"}

Parent in this assay: reference entry 2.31, copy in this library 2.25.
Background: pairings of library AAYL52 with three empty control strains gave a value in 28% of cases (median 3.91, 5th percentile 2.90). Values in that range, when seen in few replicates, are hard to tell from nonspecific mating.

Data: MIT Lincoln Laboratory AlphaSeq set, Engelhart et al. 2022, doi:10.1038/s41597-022-01779-4, as distributed in FLAb.